Structures are written as SMILES.

Sequences of proteins named here, by UniProt entry; tags and fusion partners are left off. Residues count along the entry.
UniProt P41594, 21-1180 isoform 2 limits assumed: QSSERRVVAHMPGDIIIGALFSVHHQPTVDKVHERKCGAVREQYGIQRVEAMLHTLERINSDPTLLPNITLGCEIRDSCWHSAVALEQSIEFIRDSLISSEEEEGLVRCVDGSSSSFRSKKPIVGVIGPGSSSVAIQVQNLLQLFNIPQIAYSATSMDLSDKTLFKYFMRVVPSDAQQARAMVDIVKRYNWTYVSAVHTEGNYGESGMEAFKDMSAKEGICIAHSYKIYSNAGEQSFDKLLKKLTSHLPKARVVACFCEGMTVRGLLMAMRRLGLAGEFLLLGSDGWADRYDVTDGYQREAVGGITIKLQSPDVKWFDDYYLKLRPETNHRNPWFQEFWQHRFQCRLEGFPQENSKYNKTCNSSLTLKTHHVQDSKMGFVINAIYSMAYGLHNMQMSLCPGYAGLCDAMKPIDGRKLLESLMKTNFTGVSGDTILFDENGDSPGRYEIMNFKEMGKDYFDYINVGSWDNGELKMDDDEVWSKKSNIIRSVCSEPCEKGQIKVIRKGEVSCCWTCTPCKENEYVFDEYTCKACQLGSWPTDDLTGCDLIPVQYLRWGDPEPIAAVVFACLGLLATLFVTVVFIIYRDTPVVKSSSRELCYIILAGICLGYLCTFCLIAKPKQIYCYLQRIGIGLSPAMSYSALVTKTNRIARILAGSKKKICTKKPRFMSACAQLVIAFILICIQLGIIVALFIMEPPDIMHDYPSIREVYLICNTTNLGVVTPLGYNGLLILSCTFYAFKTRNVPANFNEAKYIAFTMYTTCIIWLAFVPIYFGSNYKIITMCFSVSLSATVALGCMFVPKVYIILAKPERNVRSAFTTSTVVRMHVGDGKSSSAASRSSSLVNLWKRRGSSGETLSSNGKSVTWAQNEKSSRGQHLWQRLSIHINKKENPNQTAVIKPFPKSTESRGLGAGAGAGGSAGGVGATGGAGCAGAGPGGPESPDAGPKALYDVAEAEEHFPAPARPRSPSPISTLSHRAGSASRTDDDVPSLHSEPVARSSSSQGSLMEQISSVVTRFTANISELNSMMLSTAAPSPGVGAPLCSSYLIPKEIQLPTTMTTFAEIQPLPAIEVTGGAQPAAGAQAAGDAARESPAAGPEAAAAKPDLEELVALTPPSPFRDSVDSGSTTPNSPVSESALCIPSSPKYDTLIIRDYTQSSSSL

The experiment addresses human mGluR5a receptor (Homo sapiens, UniProt P41594). Nature of the experiment: Cell-based functional Ca2+ mobilization assay (FDSS), potentiation of glutamate EC20 response. The settings on record: for EC50 / pEC50: HEK cells transfected with human mGluR5 (H10H or H12H), in presence of EC20 glutamate; for Emax (%): maximum % effect in concentration-response curve, as percent of response to maximally effective glutamate.

Consider `COc1cncc(N2C(=O)c3cc(COc4ccccc4)nn3C[C@H]2C)n1`, for which the EC50 is 479 nM, the pEC50 is on record as 6.32 and the “Emax (%)” value was 72%.
The corresponding values for `Cc1ncc(N2CCn3nc(COc4ccccc4)cc3C2=O)nc1C` are 360 nM, 6.44 and 69%.
On the same counts, the results for `CC1CN(c2ccc(F)cc2)C(=O)c2cc(COc3ccccc3)nn21` (single isomer, unassigned) [Example 130] are 93 nM, 7.03 and 62%.
Turning to `CC1CN(c2ccc(F)cn2)C(=O)c2cc(COc3ccccc3)nn21` (single isomer, unassigned) [Example 132], the EC50 was determined as 257 nM, the negative logarithm of the EC50 (pEC50) worked out at 6.59 and the “Emax (%)” value was 43%.

The record behind these values is US8592422B2, “Bicyclic triazole and pyrazole lactams as allosteric modulators of mGluR5 receptors” (Vanderbilt University, priority 2010, dated 2013).
